Assay: in vitro
Settings: human, HEp-2 cells, Ratio CC50/EC50

## CCC(CC)COC(=O)[C@H](C)N[P@@](=O)(OC[C@H]1O[C@@](C#N)(c2ccc3c(N)ncnn23)[C@H](O)[C@@H]1O)Oc1ccccc1
  selectivity ratio: 929

## CCC(CC)COC(=O)[C@H](C)N[P@](=O)(OC[C@H]1O[C@@](C#N)(c2ccc3c(N)ncnn23)[C@H](O)[C@@H]1O)Oc1ccccc1 (stereo in doubt; 18j)
  selectivity ratio: 341
